# The list shows a part of the results, in another mix than the full data. Inconclusive results are not listed. Activity calls are given as the source filed them. Calls follow the shape of the dose curve; as a rule, active = well fitted inhibition curve with a large enough effect in the polarisation, with a control signal flat (not every such curve was filed as active); inconclusive = small, poorly fitted or top-dose-only effect, or effect the other way, or a change in a side signal; inactive = no such curve, though single readings can be large or run the other way; the % refers to the polarisation.
# Protein sequences, listed by entry. Tags and fused reporters are not part of them.
# UniProt Q13526, whole entry: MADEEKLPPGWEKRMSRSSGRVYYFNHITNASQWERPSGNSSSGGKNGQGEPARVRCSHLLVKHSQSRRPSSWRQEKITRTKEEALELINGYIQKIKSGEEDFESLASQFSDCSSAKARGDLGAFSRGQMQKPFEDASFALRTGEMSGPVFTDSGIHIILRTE
# Target: Peptidyl-prolyl cis-trans isomerase NIMA-interacting 1 (Homo sapiens) (UniProt Q13526)
# Assay: qHTS Assay to Find Inhibitors of Pin1
# Settings: Pin1 FP peptide displacement, HiFluor488, 10 min; at 115 µM (top of the series)
# % is scaled to controls: 0 for no effect and ±100 for the full control effect.
row,Compound,"activity, negative = inhibition"
1,CC(=O)c1ccc(N2CC2c2ccncc2)cc1 (stereo unspecified),inactive: -1.6%
